One molecule from patent US10806795B2, “Bispecific anti-hapten/anti-blood brain barrier receptor antibodies, complexes thereof and their use as blood brain barrier shuttles” (Hoffmann-La Roche Inc., priority 2014, dated 2020) can be followed below.

By UniProt entry, the sequences of proteins in these tests, tags left out.
UniProt P50391, whole entry, species assumed: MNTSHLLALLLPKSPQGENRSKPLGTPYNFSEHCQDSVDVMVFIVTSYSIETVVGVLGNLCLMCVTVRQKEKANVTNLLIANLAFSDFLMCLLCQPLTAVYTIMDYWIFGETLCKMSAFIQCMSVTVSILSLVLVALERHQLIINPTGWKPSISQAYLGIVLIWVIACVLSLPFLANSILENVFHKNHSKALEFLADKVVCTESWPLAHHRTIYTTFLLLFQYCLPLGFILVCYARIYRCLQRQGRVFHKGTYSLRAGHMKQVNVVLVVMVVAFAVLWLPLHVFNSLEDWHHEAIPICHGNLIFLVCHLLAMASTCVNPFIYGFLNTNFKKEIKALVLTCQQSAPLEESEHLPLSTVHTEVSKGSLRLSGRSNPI

The target of this assay is NPY4R (Homo sapiens, UniProt P50391). The assay can be described thus: Effect on the Y2Receptor family: NPY4R.

Turning to `CC[C@H](C)[C@H](N)C(=O)N[C@@H](CCCCN)C(=O)N1CCC[C@H]1C(=O)N[C@@H](CCC(=O)O)C(=O)N[C@@H](C)C(=O)N1CCC[C@H]1C(=O)NCC(=O)N[C@@H](CCC(=O)O)C(=O)N[C@@H](CC(=O)O)C(=O)N[C@@H](C)C(=O)N[C@@H](CO)C(=O)N1CCC[C@H]1C(=O)N[C@@H](CCC(=O)O)C(=O)N[C@@H](CCC(=O)O)C(=O)N[C@@H](CC(C)C)C(=O)N[C@@H](CC(N)=O)C(=O)N[C@@H](CCCNC(=N)N)C(=O)N[C@@H](Cc1ccc(O)cc1)C(=O)N[C@@H](Cc1ccc(O)cc1)C(=O)N[C@@H](C)C(=O)N[C@@H](CO)C(=O)N[C@@H](CC(C)C)C(=O)N[C@@H](CCCNC(=N)N)C(=O)N[C@@H](Cc1c[nH]cn1)C(=O)N[C@@H](Cc1ccc(O)cc1)C(=O)N[C@@H](CC(C)C)C(=O)N[C@@H](CC(N)=O)C(=O)N[C@@H](CC(C)C)C(=O)N[C@H](C(=O)N[C@H](C(=O)N[C@@H](CCCNC(=N)N)C(=O)N[C@@H](CCC(N)=O)C(=O)N[C@@H](CCCNC(=N)N)C(=O)N[C@@H](Cc1ccc(O)cc1)C(N)=O)[C@@H](C)O)C(C)C` [PYY(3-36), reference compound], the NPY4R reads like this: (listed as PYY(3-36) charge 1) 162 nM; (listed as PYY(3-36) charge 2) 131 nM.
